{"source": "patent US6255317A", "about": "“Cholesterol biosynthesis inhibitors” (Hanwha Chemical Corporation, priority 1998, dated 2001)", "tested_on": "Syrian Golden Hamster", "assay": "In vivo effect on plasma lipids and glucose in Syrian Golden Hamster", "conditions": "against normal diet control; 6.0 mg/kg/day", "method": "In order to investigate the effect of the compound of formula (1) of the invention, the compound was orally administered into male Syrian Golden Hamsters having weights of 90~110 g and then blood was taken from each animal. Plasma lipids, i.e., total cholesterol, LDL-cholesterol, HDL-cholesterol and triglycerides were analyzed using an automatic analyzer (Automatic analyzer model Hitachi 7150).\nMale Syrian Golden Hamsters weighing 90~110 g distributed from Samyuk Animal Laboratory, Seoul, Korea were bred under the following conditions: They were maintained under reverse light cycle (light cycle: from 6 P.M to 6 A.M; dark cycle: from 6 A.M. to 6 P.M.). The food and water were supplied at 10 A.M. The commercially available standard rodent chows were used. The hamsters were divided into 6 or 7 animals per group. The animals were fasted for 12 hours before administrating the drug. Then, dehydrocoridaline derivatives dissolved in a 0.25% methyl cellulose solution was administered orally for 14 days at the indicated time per a day. After fasting animals for 24 hours from the last administration, blood was extracted using a cardiac puncture and plasma was then isolated. Plasma lipids, i.e., total cholesterol, LDL-cholesterol, HDL-cholesterol and triglyceride values were analyzed using Automatic Analyzer (Hitachi 7150).", "data": [{"smiles": "CC[C@H](C)C(=O)O[C@H]1C[C@@H](C)C=C2C=C[C@H](C)[C@H](CC[C@@H]3C[C@@H](O)CC(=O)O3)[C@H]21", "note": "[lovastatin, reference compound]", "values": [{"measurement": "Trigly-ceride, percent change in parentheses", "result": -37.8, "unit": "%"}]}]}
